# Measured values reported in patent US4550170A, “6-Phenyl-2,3,5,6-tetrahydroimidazo-[2,1-b]-thiazole derivatives” (Institut Organicheskoi Khimii Akademii Nauk Ukrainskoi SSR, priority 1984, dated 1985).
# Counter-ions that a name gives are not always drawn.
# Assays:
# rats = conditions: rat, in vivo, po
# in vivo [1] = conditions: mouse, sc
# in vivo [2] = conditions: rat
# in vivo [3] = conditions: rabbit
structure (smiles),measurement,setting,value
"c1ccc([C@H]2CN3CCSC3=N2)cc1 [levamizole, L-(-)-2,3,5,6-tetrahydro-6-phenylimidazo-[2,1-b]-thiazole hydrochloride, reference compound]",LD50 upon peroral administration,rats,400.0 mg/kg
same,LD50,in vivo [1],121 mg/kg
same,LD50,"in vivo [2]; po, LD50 upon peroral administration",533 mg/kg
same,LD50,"in vivo [2]; sc, LD50 upon subcutaneous injection, rats, female",117 mg/kg
same,LD50,"in vivo [2]; sc, LD50 upon subcutaneous injection, rats, male",137 mg/kg
same,LD50,in vivo [3]; po,267 mg/kg
same,LD50,in vivo [3]; sc,38.4 mg/kg
